Assay results as given in US20100151459A1 (published 2010).

Tested on: patients with schizophrenia, schizophreniform disorder or schizoaffective disorder

O=C1CCc2ccc(OCCCCN3CCN(c4cccc(Cl)c4Cl)CC3)cc2N1 [aripiprazole]
difference in PANSS score between the two genotype groups (end of duration period after lapse of 26 weeks): difference between two groups was observed
improvement of PANSS score (0 week vs 8, 12, 16 and 26 weeks) (minor alleles of Taq IA polymorphism (A1A1) compared to major alleles (A1A2 and A2A2), at 8 weeks or later): significant improvement
symptoms by PANSS total score (patients having A1A1 alleles compared to A1A2 and A2A2, 8, 12 and 16 weeks): dramatically improved
